Biological target: MCL1-BAK1 complex (Homo sapiens, UniProt Q07820)
Assay: Inhibition of Mcl1-BAK interaction
Type: protein-complex assay

Sequences of proteins named here, by UniProt entry; tags and fusion partners are left off.
UniProt Q07820, whole entry: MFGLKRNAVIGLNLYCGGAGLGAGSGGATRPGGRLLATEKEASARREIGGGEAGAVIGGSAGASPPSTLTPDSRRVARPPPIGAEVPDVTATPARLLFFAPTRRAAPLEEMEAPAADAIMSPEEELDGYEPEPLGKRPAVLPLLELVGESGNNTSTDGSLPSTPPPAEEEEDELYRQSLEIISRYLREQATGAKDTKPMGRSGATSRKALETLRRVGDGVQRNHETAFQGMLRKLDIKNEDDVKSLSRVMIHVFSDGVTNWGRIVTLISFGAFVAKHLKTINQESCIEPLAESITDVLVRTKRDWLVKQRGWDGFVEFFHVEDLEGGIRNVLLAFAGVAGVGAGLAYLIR

IC50: > 50 µM
Compound: CN(C)CC[C@H](CSc1ccccc1)Nc1ccc(S(=O)(=O)NC(=O)c2ccc(N3CCN(Cc4ccccc4-c4ccc(Cl)cc4)CC3)cc2)cc1[N+](=O)[O-] [ABT 737]
